# Measured affinities in a library of Ab-14 light chain variants

Source: Li et al. 2023 (doi:10.1038/s41467-023-39022-2), MIT Lincoln Laboratory and A-Alpha Bio; data file from the FLAb repository.

Target peptide (SARS-CoV-2 spike, HR2 region): PDVDLGDISGINAS

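The parent was found by panning a naive human phage display library on the peptide. This is the validation round: designs drawn from the data on random variants, tested in the same kind of assay. Several design methods are mixed in this list. The assay is AlphaSeq: two haploid yeast populations carry antibody and antigen on their surface. Binding brings cells together so that they mate, and sequencing counts the barcode pairs among the diploids. Each replicate has its own calibration line, from reference interactions of the BCL2 family. The assay was run in six technical replicates.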

Ab-14 is the parent antibody, in scFv form: VH, then a (GGGGS)3 linker, then VL. The heavy chain is unchanged in all variants.
VH: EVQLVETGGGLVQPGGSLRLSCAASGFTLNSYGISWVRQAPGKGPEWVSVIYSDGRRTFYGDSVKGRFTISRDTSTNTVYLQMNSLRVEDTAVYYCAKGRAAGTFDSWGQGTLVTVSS
VL: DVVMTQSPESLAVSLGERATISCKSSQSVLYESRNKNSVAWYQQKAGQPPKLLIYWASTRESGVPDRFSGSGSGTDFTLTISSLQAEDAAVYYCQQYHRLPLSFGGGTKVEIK

The parent's light chain CDRs are KSSQSVLYESRNKNSVA, WASTRES, QQYHRLPLS; each variant's own CDRs replace them letter for letter.
Values are log10 of the apparent Kd in nM; lower means stronger binding.
A mean of the replicates is given; it leaves out those without a signal.
"nd" means that the variant was in the library but no mating with the target was seen in any replicate; the authors take this as a sign of poor binding, and no number exists.
In the paper, a design with two or fewer of six values counts as a poor binder.
Background: pairings of all light chain designs with three empty control strains gave a value in 4% of cases (median 2.64, 5th percentile 1.59). Values in that range, when seen in few replicates, are hard to tell from nonspecific mating. Also given: how often the same scFv was detected with the empty control strains.
The parent sequence was in this pool as ten entries: three were never detected, three once, and four in most replicates, with averages from 0.34 to 2.37.
Values of this round are not directly comparable with the first-round values of the same sequences.

CDR-L1,CDR-L2,CDR-L3,"log10 Kd (nM), mean",seen in,empty controls
KAQWLWPYWSRNWNSVA,NASYREQ,QQYHRLPLS,0.14,6 of 6,1 of 18
KVPQGVLYESRNKNSVA,GASVRES,QQYHRLPLS,-0.18,6 of 6,2 of 18
MLTRFNLQNQGVSNNIA,DTNQVQE,QQYFRLPFA,0.66,6 of 6,0 of 18
QLESLMGESYAEKENIA,EGEQRFS,QQYVRLPLH,1.89,4 of 6,0 of 18
KFSQSVLYEWRDKNSVA,EASTRSS,QQYHRLPLT,-0.11,6 of 6,1 of 18
KISMATTFESRNKNSVA,ENSTRES,QSYHRLPLS,2.32,6 of 6,4 of 18
KLSQSELYESRNKNSVA,NASTRLM,QQYHRLPLS,0.51,6 of 6,1 of 18
KSPQSVLYESRDKNSVA,HASTRED,QQYHRLPLS,0.02,6 of 6,2 of 18
KVSGFMRGLMMRKDSIA,DNETRSN,QQYDRLPLS,2.51,1 of 6,0 of 18
KLQWSWLYESRNWNSVA,DASTRES,QQYHRLPLS,0.15,6 of 6,0 of 18
KLQQSQLYESRNKNSVA,NASQRES,QQYHRLPLS,0.12,6 of 6,1 of 18
KLGGVTEYEMRNKNSVA,QMTTREE,QQYHRLPLS,0.03,6 of 6,3 of 18
QLSSITGHYSMIKNNVA,EMETREN,QQYDRLPLS,0.36,6 of 6,0 of 18
QIYQAMHTLSQMKNNVA,DVNERGS,QQYFRLPLS,-0.01,6 of 6,1 of 18
KLYQSVMLESRNVNSVA,SASQREL,QQYHRLPLS,-0.07,6 of 6,0 of 18
KSLQSVVYEDRNKNSVA,HASTRED,QQYHRLPLS,-0.06,6 of 6,1 of 18
KMSQSVLYESANKNSVA,WASTRFS,QQYHRLPLS,1.24,6 of 6,1 of 18
KQSQSQLYESGNGNSVA,NASVRED,QQYHRLPLS,0.30,6 of 6,0 of 18
TLGDVTRQESNKKSSIA,DMSNRAA,QQYHRLPIS,0.47,6 of 6,1 of 18
KVSISVKYESRNKNSVA,DASTRES,QQYHELPLS,0.34,6 of 6,1 of 18
KQEISVLQESRNCNSVA,NASTREV,QQYHRLPLS,nd,0 of 6,0 of 18
HMSALTMLGMRNRNSVA,QMTTREN,QQYDRLPLA,0.99,6 of 6,1 of 18
KSSQSVLDESENKNSVA,WASTRES,QQYHRLLLS,nd,0 of 6,0 of 18
KLSQSVLYEWRNKNSVA,NASQRES,QQYHRLPLS,1.05,6 of 6,0 of 18

Further variants, results first:

"log10 Kd (nM), mean",seen in,empty controls,CDR-L1,CDR-L2,CDR-L3
1.44,6 of 6,3 of 18,QLSMITGHQLMSKDNVA,EMETREN,QQYDRLPLS
2.65,4 of 6,0 of 18,KISQMYRYEQQNSSSIA,EANTREQ,QSYYRLPLS
0.74,6 of 6,1 of 18,KSSQSGLYESRNKNSVA,DASTRSS,QQYHRLPLS
nd,0 of 6,0 of 18,KSSWSVLYESTNMNSVA,WASTRES,QQYARLPNS
nd,0 of 6,0 of 18,IVSQLMLWGMHQKNSIA,EAQTRLN,QQYERLPLF
2.21,6 of 6,0 of 18,TIDDEMPSHGLKWNSIA,GVATVLQ,QQYHRLPLI
1.43,6 of 6,1 of 18,MMSQVTGLGQRHRNNVA,QTSMRET,QQYDRLPLI
nd,0 of 6,0 of 18,KDSQEVLYESRNKNSVA,WASTRES,QQYHRLPLS
1.30,3 of 6,0 of 18,IVSQLMLWGHLAKNSIA,EAVTRYN,QQYDRLPLF
1.40,1 of 6,0 of 18,KSSFSVLYESRNYNSVA,WASTRED,QQYPRPYLS
0.55,6 of 6,2 of 18,KLRQSTLYESRNKNEVA,DASTRES,QQYHRLPLS
-0.35,6 of 6,0 of 18,KFSQSVLLESRTKNNVA,NASTRES,QQYHRLPLS
0.27,6 of 6,0 of 18,KSSQSVLKDFRNKNSVA,DASTRES,QQYHRLPLS
-0.11,6 of 6,1 of 18,KLSQSCLYESRNKNSVA,NASTRES,QDYHRLPLS
1.66,1 of 6,1 of 18,KSSESVLYESLNKNSVA,WDSTRNS,QQYHRLPLF
2.67,1 of 6,0 of 18,TIGQVMNYESRNINSVA,QTSTREE,QDYDRLPLS
-0.04,6 of 6,1 of 18,KLSMMVEMMQRNPNSVA,SASTRLS,QQYHRLPLS
-0.13,6 of 6,0 of 18,KLMGSMLYESRNTNSVA,HASHRES,QQYHRLPLS
nd,0 of 6,0 of 18,KFSQSVLYESRNKNSVA,EASTREE,QQYHRLPLS
0.85,6 of 6,1 of 18,KISQSVFYESRNKNSVA,WASTRES,QQYHRLPLS
0.37,6 of 6,1 of 18,ALSQSMDMTSRNVNSVA,DLTTRGN,QQYHRLPLS
0.12,6 of 6,0 of 18,KVQQSQLYESRNKNSVA,HASTRES,QQYHRLPLS
1.42,6 of 6,0 of 18,KSSQSLLLESRNKNSVA,WATIRES,QQYHRLPLS
0.07,6 of 6,4 of 18,KLSQSHLYESRNKNSVA,EASTREQ,QQYHRLPLS

The last 7 entries again:

{"CDR-L1": "KLMGSMLYESRNTNSVA", "CDR-L2": "HASHRES", "CDR-L3": "QQYHRLPLS", "log10 Kd (nM), mean": "-0.13", "seen in": "6 of 6", "empty controls": "0 of 18"}
{"CDR-L1": "KFSQSVLYESRNKNSVA", "CDR-L2": "EASTREE", "CDR-L3": "QQYHRLPLS", "log10 Kd (nM), mean": "nd", "seen in": "0 of 6", "empty controls": "0 of 18"}
{"CDR-L1": "KISQSVFYESRNKNSVA", "CDR-L2": "WASTRES", "CDR-L3": "QQYHRLPLS", "log10 Kd (nM), mean": "0.85", "seen in": "6 of 6", "empty controls": "1 of 18"}
{"CDR-L1": "ALSQSMDMTSRNVNSVA", "CDR-L2": "DLTTRGN", "CDR-L3": "QQYHRLPLS", "log10 Kd (nM), mean": "0.37", "seen in": "6 of 6", "empty controls": "1 of 18"}
{"CDR-L1": "KVQQSQLYESRNKNSVA", "CDR-L2": "HASTRES", "CDR-L3": "QQYHRLPLS", "log10 Kd (nM), mean": "0.12", "seen in": "6 of 6", "empty controls": "0 of 18"}
{"CDR-L1": "KSSQSLLLESRNKNSVA", "CDR-L2": "WATIRES", "CDR-L3": "QQYHRLPLS", "log10 Kd (nM), mean": "1.42", "seen in": "6 of 6", "empty controls": "0 of 18"}
{"CDR-L1": "KLSQSHLYESRNKNSVA", "CDR-L2": "EASTREQ", "CDR-L3": "QQYHRLPLS", "log10 Kd (nM), mean": "0.07", "seen in": "6 of 6", "empty controls": "4 of 18"}